Laboratory results published in US11224601B1, “Compounds that inhibits MCL-1 protein” (priority 2017, dated 2022).

Test system: OPM-2 Luc cells
Test: Tumor Pharmacodynamics (PD) model
Type: in vivo
Conditions: dosed orally to female athymic nude mice inoculated with OPM-2 Luc cells; compared with Reference Compound 1

COCC[C@@H]1[C@@H](C)C/C=C/[C@@](CN2CCN3CCOC[C@@H]3C2)(OC)[C@@H]2CC[C@H]2CN2C[C@@]3(CCCc4cc(Cl)ccc43)COc3ccc(cc32)C(=O)NS1(=O)=O
in vivo efficacy in a tumor PD model relative to Reference Compound 1: superior in vivo efficacy
